Experimental data reported in the NIST ThermoML archive (doi:10.1016/j.fluid.2012.01.008).

Conditions: 313.15 K; Liquid; Closed cell (Static) method

Structure (SMILES): CCCCOCCCC [dibutyl ether]
- vapor or sublimation pressure: 2.068 ± 0.014 kPa

± gives the expanded uncertainty stated by the source.
